Test system: B16/BL6 primary tumor and cervical lymph node metastases
Assay: Combination with an antiangiogenic agent (B16/BL6)
Type: in vivo, C57BL/6 mice

SMILES: CO[C@H]1C[C@@H]2CC[C@@H](C)[C@@](O)(O2)C(=O)C(=O)N2CCCC[C@H]2C(=O)O[C@H]([C@H](C)C[C@@H]2CC[C@@H](OCCO)[C@H](OC)C2)CC(=O)[C@H](C)/C=C(\C)[C@@H](O)[C@@H](OC)C(=O)[C@H](C)C[C@H](C)/C=C/C=C/C=C/1C [Compound A, 40-O-(2-hydroxyethyl)-rapamycin]
- treated/controls ratio, metastases (interaction analysis) (metastases): 0.75
- treated/controls ratio, primary tumors (interaction analysis) (primary tumors): 0.77

Reference: US8877771B2, “Treatment of solid tumors with rapamycin derivatives” (Novartis Pharmaceuticals Corporation, priority 2001, dated 2014)
